This is an account of results in ChEMBL document CHEMBL3352818, “Seizure prevention by the naturally occurring phenols, carvacrol and thymol in a partial seizure-psychomotor model” (Bioorg Med Chem Lett, 2014).

This series can be described thus: Protective index, ratio of TD50 for CF1 albino mouse neurotoxicity to ED50 for protection against 6 Hz electroshock-induced seizure in CF1 albino mouse. The series is classed as toxicity, organism-based. Conditions: in vivo, read-out: Ratio TD50/ED50.

Where only a bound is given, the exact number is not on record here.

As to `CC[C@@H](C(N)=O)N1CCCC1=O` [LEVETIRACETAM], the selectivity ratio is more than 26.
